Data from PubChem BioAssay AID652163 (Broad Institute, 2013).
Only a part is listed here, and it is no random draw. The source made the active and inactive calls.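 How the source made its calls: active means mean inhibition of at least 70% across replicates, with every replicate also reaching that level; inconclusive means mean inhibition reaches 70% but some replicates fall short; inactive means mean inhibition below 70%.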

Sequences of proteins named here, by UniProt entry; tags and fusion partners are left off. A change or cut given only in a name is not applied to a line headed by its entry.
UniProt P26447: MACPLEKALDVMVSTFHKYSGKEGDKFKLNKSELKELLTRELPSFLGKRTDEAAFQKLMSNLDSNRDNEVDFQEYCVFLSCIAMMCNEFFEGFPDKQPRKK

molecular target: Protein S100-A4 (Homo sapiens) (UniProt P26447); experiment: inhibitors of S100A4-myosin IIA peptide binding, primary screen, biochemical, fluorescence polarization, TAMRA-MyoIIA peptide (AID 652163); conditions: at 10.7 µM, active compounds read high

| SMILES | inhibition |
| --- | --- |
| Cc1ccc(NCCc2c([N+](=O)[O-])cc([N+](=O)[O-])cc2[N+](=O)[O-])cc1 | inactive: 6.95% |
| Nc1cccc2c([As](=O)(O)O)cccc12 | inactive: 17.7% |
| CCCOP(=S)(Nc1nc(N)cc(=O)[nH]1)OCCC | inactive: -2.89% |
| CCOP(=O)(Nc1cccc2ccccc12)OCC | inactive: 4.64% |
| O=C(OC1CN2CCC1CC2)c1ccc(Cl)cc1 (stereo not drawn) | inactive: -2.07% |
| COc1cc(C(=O)NCC2(N3CCOCC3)CCCCC2)cc(Cl)c1OC(C)C | inactive: 1.83% |
| O=[As](O)(O)c1cccnc1 | inactive: 0.157% |
| CS(=O)(=O)c1ccc(Cl)c(NC(=O)COC(=O)C(O)(c2ccccc2)c2ccccc2)c1 | inactive: -3.16% |
| O=[As](O)(c1cccc(O)c1)c1cccc(O)c1 | inactive: -2.06% |
| NC(=O)Nc1ccc([As](=O)(O)O)cc1 | inactive: -6.45% |
| N#CCCN(C(=O)COC(=O)C(O)(c1ccccc1)c1ccccc1)c1ccc(F)cc1 | inactive: -6.35% |
| CCOP1(=S)c2c(C)nn(CCC#N)c2N=C(c2ccc(F)cc2)N1C (stereo not drawn) | inactive: 3.83% |
| CN(C(=O)Cc1ccccc1)[C@@H]1CC[C@]2(CCCO2)C[C@H]1N1CCCC1 | inactive: 2.61% |
| CN(C)C(=O)c1cc([N+](=O)[O-])cc2c1-c1c(cc([N+](=O)[O-])cc1[N+](=O)[O-])C2=O | inactive: -11.9% |
| CN(C(=O)Cc1ccc(Cl)c(Cl)c1)[C@H]1CC[C@@]2(CCCO2)C[C@@H]1N1CCCC1 | inactive: -5.67% |
| CCOP1(=S)c2c(C)nn(CCC#N)c2N=C(c2ccccc2F)N1C (stereo not drawn) | inactive: 1.02% |
| O=P(Nc1nccs1)(Oc1ccccc1)Oc1ccccc1 | inactive: -0.687% |
| Nc1ccccc1[As](=O)(O)c1ccccc1 | inactive: 1.82% |
| O=C(O)COc1ccc([As](=O)(O)O)cc1[N+](=O)[O-] | inactive: -3.5% |
| Cc1ccc(S(=O)(=O)N(CCCN)CCCc2c(C)nc(N)[nH]c2=O)cc1 | inactive: -1.77% |
| Nc1cccc([As](=O)(O)c2ccccc2)c1 | inactive: -0.79% |
| NS(=O)(=O)c1cccc(NC(=O)COC(=O)C(O)(c2ccccc2)c2ccccc2)c1 | inactive: -1.4% |
| O=[As](O)(c1cccs1)c1cccs1 | inactive: 2.07% |
| CC1CCC(C(C)C)C(OP(=O)(Nc2ccccn2)c2ccccc2)C1 (stereo not drawn) | inactive: 0.0745% |
| Cc1ccc(C(=O)OC2CN3CCC2CC3)cc1 (stereo not drawn) | inactive: -5.21% |

| SMILES | inhibition |
| --- | --- |
| CN(C)C1(CNC(=O)c2ccc(S(C)(=O)=O)cc2)CCCCC1 | inactive: 3.23% |
| O=C(/C=C/c1ccccc1)OC1CN2CCC1CC2 (stereo not drawn) | inactive: -0.508% |
| CCCC1OP(=O)(Nc2ccccc2)OCC1CC (stereo not drawn) | inactive: 1.16% |
| COc1ccccc1CNC(=O)COC(=O)C(O)(c1ccccc1)c1ccccc1 | inactive: 3.76% |
| CC(C)/C=N\N=C(\N)N[N+](=O)[O-] | inactive: -0.216% |
| CN(C(=O)Cc1ccc(Cl)c(Cl)c1)[C@@H]1CCCC[C@H]1N1CCCC1 | inactive: -6.01% |
| CN(C(=O)Cc1ccc(Cl)c(Cl)c1)C1CCCC[C@@H]1N1CCCC1 (stereo partly drawn) | inactive: -0.724% |
| CCC1=CC2Cc3nc4ccc(Cl)cc4c(N)c3C(C1)C2 (stereo not drawn) | inactive: -15.1% |
| CCOP(=O)(NC(=NC(C)c1ccccc1)NC(C)c1ccccc1)OCC (stereo not drawn) | inactive: -0.694% |
| CN(CCCl)Cc1cc(Cl)c(NC2=NCCN2)c(Cl)c1 | inactive: -1.43% |
| CCOP(=O)(Nc1ccc(C)cn1)OCC | inactive: -13.8% |
| O=P1(N(CCCl)CCCl)NCCC(C(F)(F)F)O1 (stereo not drawn) | inactive: -3.67% |
| CC(C)(C)C(=O)NC(Sc1ncccn1)C(Cl)(Cl)Cl (stereo not drawn) | inactive: -3.51% |
| O=C(OC1CN2CCC1CC2)c1cccc([N+](=O)[O-])c1 (stereo not drawn) | inactive: 2.14% |
| CCOC(=O)c1ccc(NC(=O)C(C)(CCl)SC)cc1 (stereo not drawn) | inactive: -2.87% |
| COP1(=S)c2c(C)nn(CCC#N)c2N=C(c2ccc(F)cc2)N1C (stereo not drawn) | inactive: -6.84% |
| COC(=O)C1(C)COP(=O)(N2CCCC2)OC1 (stereo not drawn) | inactive: -1.19% |
| O=C(O)C(=O)c1ccc(N(CCCl)CCCl)cc1 | inactive: -12% |
| O=C(Nc1ccncc1[N+](=O)[O-])c1ccc([N+](=O)[O-])cc1[N+](=O)[O-] | inactive: -6.66% |
| CCOC(=O)Nc1cccc([As](=O)(O)O)c1 | inactive: -1.92% |
| O=P(Nc1ccccn1)(c1cccc2ccccc12)c1cccc2ccccc12 | inactive: -2.39% |
| Cc1cc(SC(NC=O)C(Cl)(Cl)Cl)ncn1 (stereo not drawn) | inactive: -1.28% |
| O=[N+]([O-])c1ccc(Nc2ccc(Oc3ccc([N+](=O)[O-])cc3[N+](=O)[O-])cc2)c([N+](=O)[O-])c1 | inactive: 0.514% |
| CCOC(=O)Nc1ccc([As](=O)(O)O)c(O)c1 | inactive: -3.02% |
| O=C(O)C(O)c1ccc(N(CCCl)CCCl)cc1 (stereo not drawn) | inactive: -1.54% |

| SMILES | inhibition |
| --- | --- |
| CC1CCNP(=O)(N(CCCl)CCCl)O1 (stereo not drawn) | inactive: -3.57% |
| COP(=O)(OC)N1CC1c1ccccc1 (stereo not drawn) | inactive: 0.724% |
| CCCCOc1ccc(C(=O)NCC2(N3CCCCC3)CCCCC2)cc1OC | inactive: -5.36% |
| CC(C)c1ccc(OP(=O)(Nc2ccccn2)Oc2ccccc2F)cc1 (stereo not drawn) | inactive: -0.702% |
| COC(=O)C1(C)COP(=O)(N2CCCCCC2)OC1 (stereo not drawn) | inactive: 1.44% |
| O=C(OC1CN2CCC1CC2)c1cccc2[nH]cnc12 (stereo not drawn) | inactive: 0.215% |
| CC(C)NC(=O)NP(=O)(Oc1ccccc1)Oc1ccccc1 | inactive: 1.44% |
| O=[As](O)(c1ccc(O)cc1)c1ccccc1O | inactive: -1.91% |
| C[As](=O)(O)c1cccc(C(=O)O)c1 | inactive: -0.418% |
| COc1cc(C(=O)NCC2(N3CCOCC3)CCCCC2)ccc1OCC(C)C | inactive: 0.114% |
| O=[N+]([O-])c1ccc(-c2cc([N+](=O)[O-])c(O)c([N+](=O)[O-])c2)cc1 | inactive: -2.8% |
| [N-]=[N+]=NC1CCCCC1NC(=O)c1cc([N+](=O)[O-])cc([N+](=O)[O-])c1 (stereo not drawn) | inactive: -5.36% |
| Cc1ccc(OP(=O)(Nc2ccc([N+](=O)[O-])cn2)Oc2ccc(C)cc2)cc1 | inactive: -0.391% |
| Cc1ccc2nc3c(c(C)c2c1)CC(C(Cl)Cl)S3 (stereo not drawn) | inactive: -6.36% |
| O=[N+]([O-])c1cc(Oc2ccc([N+](=O)[O-])cc2C(F)(F)F)cc([N+](=O)[O-])c1 | inactive: 3.76% |
| COc1ccc(N/C(=N/P(=O)(N2CCOCC2)N2CCOCC2)N2CCOCC2)cc1 | inactive: -0.979% |
| Cc1c2c(nc3ccccc13)SC(C(Cl)Cl)C2 (stereo not drawn) | inactive: -1.96% |
| Cc1cc(=O)[nH]c(N[N+](=O)[O-])n1 | inactive: 0.0565% |
| COc1ccc(CN2/C(=N\P(=O)(Oc3ccccc3)Oc3ccccc3)Cc3ccccc3C2C2CC2)cc1 (stereo not drawn) | inactive: 13.7% |
| O=P1(N(CCCl)CCCl)OCCCN1CCCl (stereo not drawn) | inactive: 3.15% |
| COc1ccc2nc(NP(=O)(c3ccccc3)c3ccccc3)sc2c1 | inactive: -0.153% |
| COc1cc(I)ccc1[As](=O)(O)O | inactive: -0.198% |
| O=C(NC(Sc1ccncn1)C(Cl)(Cl)Cl)c1ccccc1 (stereo not drawn) | inactive: 13.7% |
| CC(C)CC(=O)NC(Sc1ccc(Cl)cc1)C(Cl)(Cl)Cl (stereo not drawn) | inactive: 2.18% |
| Nc1cc(N)c2nonc2c1[N+](=O)[O-] | inactive: 12.5% |

| SMILES | inhibition |
| --- | --- |
| CN(C(=O)Cc1ccc(Cl)c(Cl)c1)[C@H]1CCCC[C@H]1N1CCCC1 | inactive: 1.12% |
| Cc1ccc(N/C(=N/P(=O)(N2CCOCC2)N2CCOCC2)N2CCOCC2)cc1 | inactive: -1.97% |
| NC(=O)c1cc([N+](=O)[O-])cc([N+](=O)[O-])c1N | inactive: -0.458% |
| Clc1ccc(Cl)c(NC2=NCC(CBr)S2)c1 (stereo not drawn) | inactive: -2.88% |
| COc1ccccc1OP(=O)(Nc1ccc(C)cn1)Oc1ccccc1OC | inactive: -5.67% |
| Cc1ccc(OP(=O)(Nc2nccs2)Oc2ccc(C)cc2)cc1 | inactive: -1.44% |
| Nc1cccc2ccc([As](=O)(O)O)cc12 | inactive: 64.1% |
| CN(C(=O)Cc1ccccc1)C1CC[C@@]2(CCCO2)C[C@@H]1N1CCCC1 (stereo partly drawn) | inactive: -4.39% |
| CN(C)P(=O)(N(C)C)n1c(Nc2ccccc2)nnc1-c1ccccc1 | inactive: 1.07% |
| O=P(Nc1nc2ccc(Cl)cc2s1)(c1ccccc1)c1ccccc1 | inactive: 1.43% |
| O=C(O)c1ccccc1[As](=O)(O)O | inactive: -4.08% |
| CC(=O)Nc1ccc([As](=O)(O)O)cc1 | inactive: -2.2% |
| CCCC1OP(N)(=O)OCC1CC (stereo not drawn) | inactive: -2.31% |
| CCn1c(=O)n(C2CCN(CC3CCCCCCC3)C[C@H]2CO)c2ccccc21 (stereo partly drawn) | inactive: 1.67% |
| Cc1ccc(NP(=O)(Oc2ccccc2F)Oc2ccccc2F)nc1 | inactive: -13% |
| CN(C(=O)Cc1ccc(Cl)c(Cl)c1)[C@H]1CCCC[C@@H]1N1CCCC1 | inactive: -1.26% |
| O=[N+]([O-])c1ncn(CCn2ncnc2[N+](=O)[O-])n1 | inactive: 4.2% |
| CC(C)(C)C(=O)NC(Sc1ccncn1)C(Cl)(Cl)Cl (stereo not drawn) | inactive: -4.11% |
| O=C(O)CNc1ccc([As](=O)(O)O)cc1 | inactive: 0.333% |
| O=[N+]([O-])c1cccc(NC2=NCC(CBr)S2)c1 (stereo not drawn) | inactive: 0.612% |
| COC(=O)C1(C)COP(=O)(Nc2ccccc2)OC1 (stereo not drawn) | inactive: 1.77% |
| O=P1(N(CCCl)CCCl)OCCCS1 (stereo not drawn) | inactive: 6.08% |
| O=C(Nc1cc([As](=O)(O)O)ccc1O)c1ccccc1 | inactive: -0.278% |
